This experiment addresses T1, human 5-HT4 receptor (Homo sapiens, UniProt Q13639).
T1 construct: expressed in transfected cells; host or cells: cardiomyocytes of transgenic mice (alpha-myosin heavy chain promoter); isolated left and right atria and Langendorff-perfused hearts
The experiment is described as follows: Isolated electrically stimulated (1 Hz) left atrial preparations from 5-HT4-TG mice, organ bath contractility. Also noted: species or system human (expressed in cardiomyocytes of transgenic mice). Conditions: left atrium of 5-HT4-TG; 5-HT 1 µM, bufotenin 3 µM, tryptamine 100 µM. From the text: A mouse with cardiomyocyte-specific expression of the human 5-HT4(a) receptor has been generated in our laboratory (Gergs et al. [2010]). The cardiac myocyte-specific expression was achieved by the use of the α-myosin heavy chain promoter. The age of the animals studied in the atrial contraction experiments was around 4 months. Both genders were studied. All mice were housed under conditions of optimum light, temperature, and humidity with food and water provided ad libitum. The investigation conformed to the Guide for the Care and Use of Laboratory Animals as published by the National Research Council (2011). The animals were handled and maintained according to the approved protocols of the Animal Welfare Committee of the University of Halle-Wittenberg, Halle, Germany.
In brief, the right or left atrial preparations from the mice were isolated and mounted in organ baths as previously described (Gergs et al. [2013]; Neumann et al. [2003]). […] The solution was continuously gassed with 95% O2 and 5% CO2 and maintained at 37 °C and pH 7.4 (Kirchhefer et al. [2004]; Neumann et al. [1998], [2003]). Spontaneously beating right atrial preparations from mice were used to study any chronotropic effects.
The drug application was as follows.

Protein sequences, listed by entry. Tags and fused reporters are not part of them. Residues count along the entry.
UniProt Q13639, 1-387 isoform Q13639-2: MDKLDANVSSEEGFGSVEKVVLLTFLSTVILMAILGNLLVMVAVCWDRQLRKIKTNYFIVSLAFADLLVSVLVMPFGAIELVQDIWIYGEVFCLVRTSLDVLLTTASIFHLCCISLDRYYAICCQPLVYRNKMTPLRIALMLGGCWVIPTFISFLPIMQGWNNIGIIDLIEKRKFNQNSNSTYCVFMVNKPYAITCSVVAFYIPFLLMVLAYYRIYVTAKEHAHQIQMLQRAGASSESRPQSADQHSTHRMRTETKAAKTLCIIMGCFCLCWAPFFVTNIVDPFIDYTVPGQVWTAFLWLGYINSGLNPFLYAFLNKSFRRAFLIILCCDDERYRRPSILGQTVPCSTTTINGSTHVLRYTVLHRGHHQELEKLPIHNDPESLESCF

Among the data in article PMC10244282, “Cardiovascular effects of bufotenin on human 5-HT4 serotonin receptors in cardiac preparations of transgenic mice and in human atrial preparations” (Naunyn-Schmiedeberg's Archives of Pharmacology, 2023) are TR values, retold here.

Regarding `CN(C)CCc1c[nH]c2ccc(O)cc12` [Bufotenin, 5-hydroxy-N,N-dimethyl-tryptamine], the TR turned out to be 26.08 ± 1.23 ms.
